The numbers were not newly measured in article PMC9654333, “AmyP53, a Therapeutic Peptide Candidate for the Treatment of Alzheimer’s and Parkinson’s Disease: Safety, Stability, Pharmacokinetics Parameters and Nose-to Brain Delivery” (International Journal of Molecular Sciences, 2022), which cites them from elsewhere.

On the set-up of this data set: method as in PMID 22963731, PMID 23444784, PMID 33551991, PMID 17720549, PMID 15728733. Particulars: therapeutic peptides delivered to the brain via the intranasal route; cited from earlier work.

With “β-IFN: therapeutic peptide delivered to the brain via the intranasal route, 166 aa”, the pHi is on record as 8.9.
